Test results taken from patent US20260041706A1, “MUCUS MEMBRANE FORMULATIONS AND USES THEREOF” (priority 2022, published 2026).

Test: In vivo biodistribution and nasal residence (DiR fluorescence, IVIS)

| Substance | fluorescence signal in nasal cavity (in words) (even at 15 min after administration) | nasal residence of gellan and pectin mixture on addition of surfactant (8 h post-nasal administration, DiR-loaded) |
| --- | --- | --- |
| 1, 1′-Dioctadecyl-3,3,3′,3′-Tetramethylindotricarbocyanine Iodide [Free DiR, reference compound] | negligible fluorescence signal |  |
| sorbitan monolaurate [Span-20] |  | significantly enhanced the nasal residence |
